# AlphaSeq binding of Ab-14 light chain variants to a spike HR2 peptide

The measurements come from Engelhart et al. 2022 (doi:10.1038/s41597-022-01779-4) through the FLAb antibody collection.

The target is the same throughout: PDVDLGDISGINAS, from the HR2 region of SARS-CoV-2 spike.

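The parent was found by panning a naive human phage display library on the peptide. Variants in AAYL50 differ from the parent at up to three CDR positions; double and triple changes were sampled at random. The scFvs were displayed on barcoded MATa yeast, the peptide on MATalpha yeast. Pairs that bind mate more often; barcode pairs of the diploids are counted by sequencing. Each replicate has its own calibration line, from reference interactions of the BCL2 family. Mating was done three times.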

Ab-14 is the parent antibody, in scFv form: VH, then a (GGGGS)3 linker, then VL. The heavy chain is unchanged in all variants.
VH: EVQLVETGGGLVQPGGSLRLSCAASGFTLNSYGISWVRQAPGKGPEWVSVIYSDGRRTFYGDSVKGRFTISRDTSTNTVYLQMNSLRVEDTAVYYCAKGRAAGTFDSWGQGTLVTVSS
VL: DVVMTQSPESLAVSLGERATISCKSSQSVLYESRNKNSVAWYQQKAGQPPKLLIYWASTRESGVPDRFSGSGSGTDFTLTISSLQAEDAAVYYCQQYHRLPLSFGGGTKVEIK

The parent's light chain CDRs are KSSQSVLYESRNKNSVA, WASTRES, QQYHRLPLS; each variant's own CDRs replace them letter for letter. Affinities are written as log10 Kd with Kd in nM; a lower number is a better binder. Replicates are averaged; those with no signal do not enter the mean. An entry "n.d." has no value in the source: the pair was not observed among the diploids in that replicate. This suggests poor binding but is not conclusive. Nonspecific signal, from three strains lacking the peptide, appeared in 18% of pairings of library AAYL50, centred on 4.19 (5% of these signals below 2.99); values are not corrected for it. Also given: how often the same scFv was detected with the empty control strains, with their mean in brackets.

CDR-L1 | CDR-L2 | CDR-L3 | log10 Kd (nM) by replicate | mean, log10 nM | control signals
KSSQSVLYGSRNKNSVA | WASTEEY | QQYHRLPLS | n.d. n.d. n.d. | n.d. | 0/9
KSSQSVLYESRNLNSVA | WASTRES | QQVHRLPLS | 0.20 0.53 0.49 | 0.41 | 5/9 (5.11)
WSSQSELYESRRKNSVA | WASTRES | QQYHRLPLS | 4.06 n.d. n.d. | 4.06 | 4/9 (3.71)
KSSQSVLYESANKNNVA | WAKTRES | QQYHRLPLS | 0.31 0.02 0.61 | 0.31 | 0/9
KSSQSVLYESRNKNVVA | WASVRES | PQYHRLPLS | n.d. n.d. n.d. | n.d. | 0/9
KSSQSVLYESRNKNSVA | WQWTRES | QQYHRLPLS | 6.08 n.d. n.d. | 6.08 | 1/9 (4.07)
KSSQSVLYEDSNKNSVA | WASTGES | QQYHRLPLS | 2.14 2.23 2.41 | 2.26 | 2/9 (4.36)
KSSQSVLYESRNKNSVM | WASDRES | QQTHRLPLS | 4.28 n.d. 5.19 | 4.73 | 2/9 (4.27)
KSSQSTLYESRNKGSVA | WASTRQS | QQYHRLPLS | 1.27 1.46 1.47 | 1.40 | 2/9 (5.09)
KSSQSVLYESRNKNSFA | WASTRES | QQAHRLMLS | 3.24 3.30 n.d. | 3.27 | 2/9 (3.70)
KSSQSVKYESRNKNSVA | WASTRES | QQYHRGPLS | n.d. 3.98 n.d. | 3.98 | 1/9 (2.65)
KSSQSFLYESRNKNSVA | WACTRES | VQYHRLPLS | n.d. n.d. n.d. | n.d. | 1/9 (4.09)
KSFQSVLYESRNKNSVA | WASTRES | QQYHRLELS | n.d. n.d. n.d. | n.d. | 0/9
KSSQSVLYGSRNKNSVA | WASTQES | QQYKRLPLS | n.d. 4.51 5.12 | 4.82 | 2/9 (4.50)
KSSQSVLYESRNKNSVA | WYSTREM | QQYHRYPLS | n.d. n.d. n.d. | n.d. | 1/9 (3.73)
KSSSSQLYESRNKNCVA | WASTRES | QQYHRLPLS | 1.68 1.81 2.00 | 1.83 | 2/9 (3.76)
KSSFSVLYESRNKNSVA | WASLREN | QQYHRLPLS | 1.08 1.19 1.04 | 1.10 | 0/9
PSSQSVLYESRNKNSVA | WASTRES | QQYLRLILS | n.d. n.d. 5.48 | 5.48 | 2/9 (3.97)
KSMPSVLYESRNKNSVA | WASTRES | QAYHRLPLS | 3.97 n.d. 2.30 | 3.14 | 0/9
KSSQSVLNEPRNKNVVA | WASTRES | QQYHRLPLS | n.d. n.d. n.d. | n.d. | 0/9
KSSQQVLYESRNKNSVA | WGSTRES | QQYHRLPLV | 2.13 1.52 0.53 | 1.39 | 0/9
KSSQSVLYESRNKRSVA | IASTRES | QQYHALPLS | n.d. n.d. 4.83 | 4.83 | 1/9 (4.20)
KSSGSVLYESRNKNSVA | KASTRES | QQYHRLPLA | 1.16 1.37 1.31 | 1.28 | 0/9
KSSQWVLYESRRKNSVA | WMSTRES | QQYHRLPLS | n.d. n.d. n.d. | n.d. | 0/9
KSSQSVLYESRNKNSVI | WASTPES | QQYHRVPLS | n.d. n.d. n.d. | n.d. | 1/9 (5.30)
KSSQSVQYESRNKNSVA | WASTRES | QYYHNLPLS | n.d. n.d. n.d. | n.d. | 0/9
KSIQSVLYEARNKNSLA | WASTRES | QQYHRLPLS | 3.16 2.65 2.65 | 2.82 | 1/9 (3.17)
KSSQSVLYESRNKNSVA | KASHNES | QQYHRLPLS | 4.68 n.d. n.d. | 4.68 | 5/9 (4.36)
KSSQSVLYESRNKNSVA | VASTREP | QYYHRLPLS | n.d. n.d. n.d. | n.d. | 0/9
KSSQSVLYEQRNKNSVA | WWSTRES | QQYHRLPLC | 4.80 n.d. n.d. | 4.80 | 1/9 (3.95)
KSSCSDLYESRNKNSVA | WASTRES | QQYHRLPLS | n.d. n.d. n.d. | n.d. | 0/9
KSSQSVLYESRNKNSVA | WASTRES | QTYHRLPLS | 2.52 1.94 2.67 | 2.38 | 3/9 (3.17)
KSSQSVLYESQNPNSVA | WTSTRES | QQYHRLPLS | 0.62 0.92 0.89 | 0.81 | 1/9 (4.86)
KSSQSVLYESRNKNSSA | WLSTRES | QQYHRLCLS | n.d. n.d. n.d. | n.d. | 5/9 (5.01)
KSSQSVMYESRNKNSVA | WASTRAE | QQYHRLPLS | -0.03 0.32 0.13 | 0.14 | 0/9
VSSQSVLYESRNKNSVQ | WASHRES | QQYHRLPLS | n.d. n.d. n.d. | n.d. | 0/9

The first 5 entries again:

CDR-L1 | CDR-L2 | CDR-L3 | log10 Kd (nM) by replicate | mean, log10 nM | control signals
KSSQSVLYGSRNKNSVA | WASTEEY | QQYHRLPLS | n.d. n.d. n.d. | n.d. | 0/9
KSSQSVLYESRNLNSVA | WASTRES | QQVHRLPLS | 0.20 0.53 0.49 | 0.41 | 5/9 (5.11)
WSSQSELYESRRKNSVA | WASTRES | QQYHRLPLS | 4.06 n.d. n.d. | 4.06 | 4/9 (3.71)
KSSQSVLYESANKNNVA | WAKTRES | QQYHRLPLS | 0.31 0.02 0.61 | 0.31 | 0/9
KSSQSVLYESRNKNVVA | WASVRES | PQYHRLPLS | n.d. n.d. n.d. | n.d. | 0/9